ChEMBL document CHEMBL1139709, “6-Hydroxy- and 6-methoxy-beta-carbolines as acetyl- and butyrylcholinesterase inhibitors” (Bioorg Med Chem Lett, 2006)

The chains behind the UniProt entries cited, without tags or fusion partners.
UniProt P06276, whole entry: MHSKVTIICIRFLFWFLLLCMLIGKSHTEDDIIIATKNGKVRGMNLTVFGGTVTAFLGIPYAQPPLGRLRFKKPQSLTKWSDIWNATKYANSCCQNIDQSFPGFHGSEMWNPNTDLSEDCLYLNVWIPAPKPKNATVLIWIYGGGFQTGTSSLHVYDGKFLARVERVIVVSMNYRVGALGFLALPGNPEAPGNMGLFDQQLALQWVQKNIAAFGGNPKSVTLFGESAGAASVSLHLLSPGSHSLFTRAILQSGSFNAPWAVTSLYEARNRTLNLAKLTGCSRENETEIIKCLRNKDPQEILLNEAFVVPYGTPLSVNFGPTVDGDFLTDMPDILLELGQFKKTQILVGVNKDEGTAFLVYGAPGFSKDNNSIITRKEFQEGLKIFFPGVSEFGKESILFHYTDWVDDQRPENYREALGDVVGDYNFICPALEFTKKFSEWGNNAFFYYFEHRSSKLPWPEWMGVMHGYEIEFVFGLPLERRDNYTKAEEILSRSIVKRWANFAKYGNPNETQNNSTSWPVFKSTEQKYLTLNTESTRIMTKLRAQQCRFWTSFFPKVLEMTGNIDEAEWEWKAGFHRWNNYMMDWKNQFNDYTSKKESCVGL

Target: Cholinesterase (Homo sapiens, UniProt P06276)
Assay: Inhibition of BChE

Structure (SMILES): CCN(C)C(=O)Oc1cccc([C@H](C)N(C)C)c1 [RIVASTIGMINE]
- IC50: 54 µM
